Measured values: patent publication US6153429A (priority 1997, dated 2000)

Legend:
[1] = test system: T1 cells (C3H/10T1/2 fibroblasts transfected with pdBPV-1 (142-6)); conditions: for Ratio of Treated: Untreated Foci: mouse, c3h/10t1/2 t1 cells, 504 h
[2] = test system: S1 clone (C3H/10T1/2 fibroblasts transfected with pdBPV-1 (142-6)); format: cell-based, mouse; conditions: 0.5 ng/ml mezerein, 21 days; average of 21 in the absence of mezerein

SMILES | #Foci In Treated Cells [1] | Ratio of Treated: Untreated Foci [1] | average number of foci in the presence of mezerein, S1 clone [2] | average number of foci in the presence of mezerein, subclone T1 [1]
CC/C(=C(/CC)c1ccc(O)cc1)c1ccc(O)cc1 [Diethylstilbestroel, diethylstilbestroel] | 83 + 4 | – | – | –
C1CCOC1 [tetrahydrofuran] | 70 + 7 | – | – | –
O[As](O)O [Arsenite] | 75 + 2 | 1.2 | – | –
c1ccc2c(c1)cc1ccc3cccc4ccc2c1c34 [Benzo[a]pyrene, benzo[a]pyrene] | 90 + 6 | – | – | –
[Cd] [Cadmium] | 100 + 7 | 1.4 | – | –
C=C(C)C12OC3(c4ccccc4)OC1C1C4OC4(CO)C(O)C4(O)C(=O)C(C)=CC4C1(O3)C(C)C2OC(=O)/C=C/C=C/c1ccccc1 (stereo not shown) [Mezerein, mezerein] | 143 + 18 | – | 60 foci per 60 mm^2 plate | 70 foci
Cn1c(=O)c2c(ncn2C)n(C)c1=O [caffeine] | 64 + 3 | – | – | –
O=[As](O)(O)O [arsenate] | 91 + 5 | 1 | – | –
